Assay in all cases: Growth on various substrates (carbon substrate utilization)
Common to all, as to conditions: 1 g/L carbon source, N2:CO2 (80%:20%), OD600

One test has as its system C. autoethangenum. It is filed as cell-based, Clostridium autoethanogenum. As for the experimental part:
(§1) Growth was measured spectrophotometrically at 600 nm (Spectronic 20D; Milton Roy). Carbon substrate utilization was based upon growth after consecutive transfers in media containing 1 g/L of each carbon source. For carbon substrates, screening was performed under an atmosphere of N2: CO2 (80%:20%). A positive growth response was recorded for an OD600 exceeding 0.2 AU. For citrate, additional ^13C-labeled isotope experiments were conducted to determine the nature of products by analysis of final 0.2 μm-filtered product samples by carbon NMR using a Bruker UltraShield Avance 400 MHz nuclear magnetic resonance spectrometer.

The next test deals with C. ljungdahlii PETC. It is filed as cell-based, Clostridium ljungdahlii PETC. As for the experimental part: as §1
In the next test the test system is C. ragsdalei. It is filed as cell-based, Clostridium ragsdalei. On the procedure:
as §1

Another test relates to C. coskatii PS02. It counts as cell-based, Clostridium coskatii (PS02). On the procedure: as §1

From US8802405B2, “Ethanologenic Clostridium species, Clostridium coskatii” (Coskata, Inc., priority 2010, dated 2014) come the findings set out here.

Take `O=C(O)CC(C(=O)O)C(O)C(=O)O` (stereo not shown) [Iso-Citrate]: the Growth on substrate entry in the test on C. autoethangenum, with C. ljungdahlii PETC, in the test on C. ragsdalei and with C. coskatii PS02 was “+ (A positive growth response was recorded for an OD600 exceeding 0.2 AU)” in each case.
